# Screening results as filed in PubChem BioAssay.
# The full list was thinned out, with hits kept by preference.
# GIV Gai3 FP: inhibitors of GIV GBA-motif binding to rat Galpha-i3. P08753. Galpha-i3/FITC-GIV peptide fluorescence polarization, 90 min; hits give low values; scaled: aluminum fluoride 0%, vehicle 100%. percent of control (FP), % (no concentration beside the values). 210,000 compounds, 0.42% hits;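 active = replicate mean at 85% of control or lower, very high polarization wells dropped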;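 also: wells of about 15 µL received 100 nL stock; the first replicate is given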
# GIV Gai FP conf: confirmation of inhibitors of GIV binding to rat Galpha-i3. FITC-GIV peptide binding to Galphai3, fluorescence polarization; stronger effect = lower value. 580 compounds, 38% hits. fluorescence polarization, mP at 100 µM. shares compounds with GIV Gai3 FP;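 active = inhibition score of 15 or more, meaning 100 minus mean polarization as percent of control over three replicates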
# GIV Gai AS conf: GIV-Galpha-i3 inhibition, AlphaScreen confirmation | shares compounds with GIV Gai3 FP | AlphaScreen Galphai3-GIV binding, purified proteins, 90 min; stronger effect = lower value | AlphaScreen counts at 100 µM | 580 compounds, 39% hits | AID 1259351;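 active = inhibition score at or above a set limit, where the score is 100 minus the three-replicate mean percent of control signal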
# An asterisk follows results filed as active; ! = not confirmed by another sample.
SMILES,GIV Gai3 FP,others
O=C(CCN1C(=O)/C(=C/c2ccc3c(c2)OCO3)SC1=S)Nc1nc2ccccc2s1,72.0*,GIV Gai FP conf=87.5;GIV Gai AS conf=35546
O=C(CCN1C(=O)/C(=C/c2cccs2)SC1=S)Nc1nc2ccccc2s1,113.8,
O=C(CCN1C(=O)/C(=C/c2ccc3c(c2)OCO3)SC1=S)Nc1nc(-c2ccccc2)cs1,106.9,
CCOC(=O)C1=C(C)N=c2s/c(=C\c3cc(Br)ccc3O)c(=O)n2C1c1ccc2c(c1)OCO2 (configuration not stated),97.8,
Nc1nc2ccc(NC(=O)c3ccccc3)cc2s1,107.0,
CCc1ccc2nc(N)sc2c1,100.0,
Nc1nc2ccc(CCC(=O)O)cc2s1,56.8*,GIV Gai FP conf=60.1*;GIV Gai AS conf=3278*
CCOc1ccc2c(c1)C(=O)c1cc(OCC)ccc1-2,97.0,
CCCOc1ccc2c(c1)C(=O)c1cc(OCC(=O)O)ccc1-2,79.9*,GIV Gai FP conf=73.1;GIV Gai AS conf=54581
CCOc1ccc2c(c1)C(=O)c1cc(OCC(=O)OC)ccc1-2,128.3,
CCOC(=O)c1c(C=O)oc2c(C)cc(OC(=O)c3cccc(OC)c3)c(Br)c12,98.5,
CCOC(=O)C1CCC(CNC(=O)NCCn2nnc3cc(C(=O)N(C)C)ccc32)CC1 (configuration not stated),101.2,
O=C(O/N=C1\CCCc2c1sc1nc3n(c(=O)c21)CCCCC3)c1ccccc1,108.5,
Nc1c(C(=O)Nc2ccc([N+](=O)[O-])cc2)sc2nc(-c3cccs3)cc(C(F)(F)F)c12,109.1,
CC1=NN(c2ccccc2)C(=O)C1(C)N (configuration not stated),104.2,
CC1=NN(c2ccccc2)C(=O)C1(O)C1C(=O)c2ccccc2C1=O (configuration not stated),73.6*,GIV Gai FP conf=56.4*;GIV Gai AS conf=4583*
CC1=NN(c2ccccc2)C(=O)C12C1C=CC(C1)C2(C(F)(F)F)C(F)(F)F (configuration not stated),96.5,
CN(C)C(=O)c1ccc2c(c1)N(CC(=O)NCc1ccc3c(c1)OCO3)C(=O)CO2,94.5,
O=C1Oc2ccc3ccccc3c2C1(O)C(F)(F)F (configuration not stated),102.3,
COc1cccc(C(=O)NCCc2cc3ccc(OC)cc3[nH]c2=O)c1,107.1,
COC(=O)/C(C#N)=C/c1ccc(OC)cc1,99.0,
CCOC(=O)/C(C#N)=C\c1cc2ccc(OC)cc2[nH]c1=O,56.4*,GIV Gai FP conf=82.3;GIV Gai AS conf=26623
CC1(C)C(=O)N(CC(=O)N2CCN(C3CCCCC3)CC2)c2ccccc21,97.4,
CC(C)Oc1ccc(C(=O)NCC(c2ccccc2)c2c[nH]c3ccccc23)cc1 (configuration not stated),108.8,
COc1ccc(Br)cc1-c1nc(CSc2nc(-c3ccncc3)cc(=O)[nH]2)c(C)o1,106.8,
O=C(NCc1ccccc1F)C1CCn2c(nc3ccccc32)C1 (configuration not stated),108.8,
Cc1nc(N)nc(C)c1CCC(=O)O,108.2,
O=C(CSc1n[nH]c(-c2ccccc2)n1)c1cccs1,103.9,
Cc1cc2n(n1)C(c1cc(C(C)(C)C)c(O)cc1O)Nc1c(C)cccc1-2 (configuration not stated),101.3,
O=C(Cn1ncc2c([nH]c3ccccc32)c1=O)Nc1ccc(Cl)cn1,98.2,
C/C(=N/N1CCN(c2ccccc2)CC1)c1ccccc1,84.9*,GIV Gai FP conf=79.1;GIV Gai AS conf=33751
C/C=C(\C)CN1CCN(c2ccccc2)CC1,107.7,
CCc1ccc(/C=N\N2CCN(c3ccccc3)CC2)cc1,100.6,
C=CCN1C(=O)C(C#N)=C(C)/C(=C\c2ccc(-c3cccc(C(=O)O)c3)o2)C1=O,83.2*,GIV Gai FP conf=78.7;GIV Gai AS conf=2591*
CC1=C(C#N)C(=O)N(C)C(=O)/C1=C/c1ccc(-c2cccc(Cl)c2C)o1,105.7,
CC1=C(C#N)C(=O)N(C)C(=O)/C1=C/c1ccc(-c2ccccc2C(=O)O)o1,84.4*,GIV Gai FP conf=68.3;GIV Gai AS conf=2072*
CC1=C(C#N)C(=O)N(CCc2ccccc2)C(=O)/C1=C\c1ccc(-c2cccc(Cl)c2)o1,101.0,
COC(=O)c1ccc(-c2ccc(/C=C3/C(=O)N(C)C(=O)C(C#N)=C3C)o2)cc1,99.9,
CN1C(=O)C(=Cc2ccc(-c3cccc(C(=O)O)c3)o2)C(=O)N(C)C1=S,91.7,
O=S(=O)(c1cccc(F)c1)N1CCN(c2nc3ccccc3n3cccc23)CC1,100.4,
N#Cc1ccc(NC(=O)C2CCN(c3nccc(C(F)(F)F)n3)CC2)cc1,109.1,
COc1ccc(Nc2c3c(nc4nc(C)nn24)CCC3)cc1Cl,102.9,
O=C(Cc1csc2nc(-c3ccccc3)cn12)N1CCN(c2ccc(F)cc2)CC1,99.0,
O=c1[nH]c2ccccc2nc1NCc1ccccc1,100.4,
Cc1n[nH]c(=O)nc1NCc1ccccc1,98.2,
Nc1nc(NCc2ccccc2)c(I)c(=O)[nH]1,50.2*,GIV Gai FP conf=46.3*;GIV Gai AS conf=2457*
Cc1nnc(NC(=O)c2ccc3c(c2)C(=O)N(Cc2cccnc2)C3=O)s1,103.3,
CC(=O)c1c2c3c(c(Br)ccc3n(C)c1=O)C(=O)c1ccccc1-2,110.9,

# Next part, overlapping the part above by 6 compounds.
SMILES,GIV Gai3 FP,others
O=C(Cc1csc2nc(-c3ccccc3)cn12)N1CCN(c2ccc(F)cc2)CC1,99.0,
O=c1[nH]c2ccccc2nc1NCc1ccccc1,100.4,
Cc1n[nH]c(=O)nc1NCc1ccccc1,98.2,
Nc1nc(NCc2ccccc2)c(I)c(=O)[nH]1,50.2*,GIV Gai FP conf=46.3*;GIV Gai AS conf=2457*
Cc1nnc(NC(=O)c2ccc3c(c2)C(=O)N(Cc2cccnc2)C3=O)s1,103.3,
CC(=O)c1c2c3c(c(Br)ccc3n(C)c1=O)C(=O)c1ccccc1-2,110.9,
COc1ccc(Nc2c3c4c(c(Br)ccc4n(C)c2=O)C(=O)c2ccccc2-3)cc1,109.1,
Cn1c(=O)c(C(=O)CS(=O)(=O)O)c2c3c(c(Br)ccc31)C(=O)c1ccccc1-2,84.2*,GIV Gai FP conf=62.5;GIV Gai AS conf=5202*
Cc1c(C)n(-c2ccc(F)c(F)c2)c2ncnc(Nc3ccc(F)c(F)c3)c12,104.6,
O=C(NCCc1c[nH]c2ccccc12)c1cccc(-n2c(=S)[nH]c3ccccc3c2=O)c1,109.2,
CN(C)C(=O)c1cn(-c2ccccc2)c(=O)c2ccccc12,111.2,
CNC(=O)c1cn(-c2ccccc2)c(=O)c2ccccc12,103.7,
CC(=O)n1c(=O)c2ccccc2c(=O)n1-c1ccccc1,78.6*!,GIV Gai FP conf=52*;GIV Gai AS conf=2364*
CCCCn1c(CNC(=O)c2cccs2)nnc1SCC(=O)Nc1sc2c(c1C(=O)OCC)CCCC2,107.7,
Cc1cc(OCc2nc(CC(=O)NCC(C)C)cs2)ccc1Cl,96.2,GIV Gai FP conf=69.4;GIV Gai AS conf=41855
Cc1cc(OCc2nc(C)c(C(=O)NCC(C)C)s2)ccc1Cl,105.3,
Cc1cc(OCc2nc(CC(=O)NC3CC3)cs2)ccc1Cl,122.6,
COc1ccc(NC(=O)c2ccc(-n3cnc(NC(C)=O)c3)cc2)c(OC)c1,97.6,

# Three compounds already listed, sorted by SMILES length, descending:
SMILES,GIV Gai3 FP,others
Cn1c(=O)c(C(=O)CS(=O)(=O)O)c2c3c(c(Br)ccc31)C(=O)c1ccccc1-2,84.2*,GIV Gai FP conf=62.5;GIV Gai AS conf=5202*
Cc1c(C)n(-c2ccc(F)c(F)c2)c2ncnc(Nc3ccc(F)c(F)c3)c12,104.6,
CN(C)C(=O)c1cn(-c2ccccc2)c(=O)c2ccccc12,111.2,

# Later entries
SMILES,GIV Gai3 FP,others
CC(C)(C)NS(=O)(=O)c1ccc(N2CCCCS2(=O)=O)cc1,108.3,
CN(CCCC(=O)O)S(=O)(=O)c1ccc2c(c1)Cc1cc(S(=O)(=O)N(C)CCCC(=O)O)ccc1-2,82.8*,GIV Gai FP conf=50.1*;GIV Gai AS conf=26370*
CCCCN(C)S(=O)(=O)c1ccc2c(c1)CC(C)N2C(C)=O (configuration not stated),99.6,
CCCCN(C)S(=O)(=O)c1ccc2c(c1)CCCC(=O)N2,98.1,
COc1ccc(C(=O)CC2(O)C(=O)Nc3ccc(Br)cc32)cc1[N+](=O)[O-] (configuration not stated),105.7,
O=C(CSc1nnc(-c2ccccn2)c(-c2ccccn2)n1)c1ccc(N2CCCC2=O)cc1,107.0,
O=C(CSc1nnc2c(n1)CCCC2)c1ccc(N2CCCC2=O)cc1,65.7*,GIV Gai FP conf=53*;GIV Gai AS conf=2430*
NC(=O)CSc1nnc2c(n1)CCCC2,98.8,
CCCCOc1c(OC)cccc1C1CC(=O)Nc2c1c(C)nn2-c1ccc2nncn2n1 (configuration not stated),97.8,
